This is an account of results in ChEMBL document CHEMBL1148684, “Benzimidazole-2-carboxamides as novel NR2B selective NMDA receptor antagonists” (Bioorg Med Chem Lett, 2006).

The target in assay [1] is Glutamate receptor ionotropic, NMDA 2B (Rattus norvegicus, UniProt Q00960). The assay is described as follows: Displacement of [3H]Ro25-6981 from NR2B NMDA receptor in rat forebrain membrane. The assay is classed as cell membranes. On the technique in general: Loss of bound radioactivity is the signal in a displacement assay; it reports binding, not function.
Assay [2] has as its target Glutamate NMDA receptor. Kind of assay: Inhibition of NMDA-evoked increase in intracellular calcium ion in rat cortical cells. The assay is classed as functional, cell-based. For orientation: A change in cytosolic calcium serves as a functional read-out for many receptors and channels.

As a reminder, the IC50 is the midpoint of a concentration-inhibition curve. On to `O=C(/C=C/c1ccc(O)cc1)N1CCC(Cc2ccccc2)CC1`, for which the IC50 worked out at 196 nM in assay [1] and 191 nM in assay [2].
